For this data set, the target named is ATP-dependent translocase ABCB1 (Homo sapiens, UniProt P08183). As to the kind of experiment: Inhibition of P-gp-mediated doxorubicin efflux in human Lucena 1 cells assessed as ratio of doxorubicin fluorescence intensity in presence of compound to doxorubicin fluorescence intensity in absence of compound at 6.25 uM preincubated for 1 hr followed by doxorubicin addition measured after 1 hr by flow cytometry. The format is cell-based.

By UniProt entry, the sequences of proteins in these tests, tags left out.
UniProt P08183, whole entry: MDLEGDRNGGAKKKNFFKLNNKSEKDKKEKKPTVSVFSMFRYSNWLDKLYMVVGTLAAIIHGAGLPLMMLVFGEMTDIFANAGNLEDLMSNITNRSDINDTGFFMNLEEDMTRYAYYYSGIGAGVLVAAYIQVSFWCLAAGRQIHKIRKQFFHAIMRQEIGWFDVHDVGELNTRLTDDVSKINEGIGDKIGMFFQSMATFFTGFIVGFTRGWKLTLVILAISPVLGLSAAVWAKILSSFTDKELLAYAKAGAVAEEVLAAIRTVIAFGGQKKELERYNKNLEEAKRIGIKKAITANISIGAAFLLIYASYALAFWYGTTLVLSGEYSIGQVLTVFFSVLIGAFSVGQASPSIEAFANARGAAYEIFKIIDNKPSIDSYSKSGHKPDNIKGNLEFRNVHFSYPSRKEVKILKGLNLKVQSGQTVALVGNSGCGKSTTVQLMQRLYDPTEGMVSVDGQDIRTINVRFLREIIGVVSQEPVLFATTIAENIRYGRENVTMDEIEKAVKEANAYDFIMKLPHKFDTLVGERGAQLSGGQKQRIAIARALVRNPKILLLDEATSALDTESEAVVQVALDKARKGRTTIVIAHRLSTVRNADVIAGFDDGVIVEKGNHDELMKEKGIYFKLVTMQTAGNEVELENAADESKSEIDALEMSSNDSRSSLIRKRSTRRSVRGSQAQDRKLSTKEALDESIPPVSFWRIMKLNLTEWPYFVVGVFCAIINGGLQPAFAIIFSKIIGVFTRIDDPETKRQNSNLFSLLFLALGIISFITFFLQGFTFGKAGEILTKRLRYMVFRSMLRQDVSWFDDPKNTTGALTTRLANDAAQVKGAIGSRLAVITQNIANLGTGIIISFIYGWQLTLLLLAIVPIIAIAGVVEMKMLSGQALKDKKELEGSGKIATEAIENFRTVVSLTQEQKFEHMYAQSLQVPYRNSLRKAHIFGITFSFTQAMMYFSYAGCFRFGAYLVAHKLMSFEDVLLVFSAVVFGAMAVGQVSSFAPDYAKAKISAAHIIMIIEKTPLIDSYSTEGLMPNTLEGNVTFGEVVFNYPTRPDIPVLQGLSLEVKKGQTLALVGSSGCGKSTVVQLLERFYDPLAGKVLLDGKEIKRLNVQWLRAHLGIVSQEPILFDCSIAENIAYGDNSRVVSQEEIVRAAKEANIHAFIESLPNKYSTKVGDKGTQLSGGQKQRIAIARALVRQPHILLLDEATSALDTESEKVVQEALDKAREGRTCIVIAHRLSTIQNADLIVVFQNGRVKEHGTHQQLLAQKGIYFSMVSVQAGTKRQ

Regarding `CC/C(=C(\c1ccccc1)c1ccc(OCCN(C)C)cc1)c1ccccc1` [TAMOXIFEN], the Ratio came out at 1.05.
